The numbers were not newly measured in patent US20130143873A1 (priority 2010, published 2013), which cites them from elsewhere.

Structures are written as SMILES.

The data set concerns ALS patients. The following applies: initial trials; cited from earlier work.

For the molecule `Nc1nc2ccc(OC(F)(F)F)cc2s1` [riluzole], the “increase in survival (mean)” value is on record as “three”.
